{"source": "patent US7880025B2", "about": "“Ruthenium silyl-arene complex , and method for production thereof” (Takasago International Corporation, priority 2009, dated 2011)", "test": "Solubility of [RuCl2(arene)]2 complexes in 100 ml of solvent at 25° C. in various solvents", "data": [{"substance": "[RuCl2(4-(triisopropylsilyl)toluene)]2 [TIPS-tol]", "values": [{"measurement": "solubility in 100 ml of solvent, Acetone", "result": 0.8, "unit": "g/100 ml"}, {"measurement": "solubility in 100 ml of solvent, Chloroform", "result": 56.5, "unit": "g/100 ml"}, {"measurement": "solubility in 100 ml of solvent, Methanol", "result": 2.4, "unit": "g/100 ml"}, {"measurement": "solubility in 100 ml of solvent, THF", "result": 1.9, "unit": "g/100 ml"}, {"measurement": "solubility in 100 ml of solvent, Toluene", "result": 1.5, "unit": "g/100 ml"}]}, {"substance": "[RuCl2(4-(trimethylsilyl)toluene)]2 [TMS-tol]", "values": [{"measurement": "solubility in 100 ml of solvent, Acetone", "result": 1.0, "unit": "g/100 ml"}, {"measurement": "solubility in 100 ml of solvent, Chloroform", "result": 31.3, "unit": "g/100 ml"}, {"measurement": "solubility in 100 ml of solvent, Methanol", "result": 3.7, "unit": "g/100 ml"}, {"measurement": "solubility in 100 ml of solvent, THF", "result": 2.3, "unit": "g/100 ml"}, {"measurement": "solubility in 100 ml of solvent, Toluene", "result": 1.4, "unit": "g/100 ml"}]}]}
